Drawing on PubChem BioAssay AID1832 (Broad Institute, 2009), this text covers activity score (negative = inhibition of binding) for 59 compounds.

By UniProt entry, the sequences of proteins in these tests, tags left out.
UniProt Q9XUB2, whole entry: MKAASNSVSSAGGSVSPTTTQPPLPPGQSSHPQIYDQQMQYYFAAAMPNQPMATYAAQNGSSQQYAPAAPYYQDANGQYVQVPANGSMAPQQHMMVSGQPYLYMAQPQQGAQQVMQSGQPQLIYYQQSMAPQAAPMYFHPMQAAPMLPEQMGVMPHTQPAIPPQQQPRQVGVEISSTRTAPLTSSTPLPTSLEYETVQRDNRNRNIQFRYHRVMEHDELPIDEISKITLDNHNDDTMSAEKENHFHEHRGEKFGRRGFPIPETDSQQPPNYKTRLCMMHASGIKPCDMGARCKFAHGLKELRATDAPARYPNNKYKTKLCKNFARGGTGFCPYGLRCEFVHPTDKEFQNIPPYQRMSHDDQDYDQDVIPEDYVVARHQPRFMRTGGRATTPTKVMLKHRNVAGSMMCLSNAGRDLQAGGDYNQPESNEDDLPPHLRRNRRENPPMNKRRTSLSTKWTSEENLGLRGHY

Only a part is listed here, and it is no random draw. Calls of active or inactive are those of the source.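 The calls were made as follows: active = inhibition past about -25% in most replicates, and total fluorescence under double the plate's negative control median (limit read from the data); inconclusive = replicates evenly split on the limit, or fluorescence at least double controls; inactive = too little inhibition in most replicates.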

The target in the assay is Zinc finger protein mex-5 (Caenorhabditis elegans) (UniProt Q9XUB2). Briefly: MEX-5 zinc finger RNA-binding disruptors – biochemical, C. elegans, fluorescence polarization, MLPCN library, primary screen (AID 1832).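 Also: 0% = DMSO and -100% = 5 µM competing unlabeled TCR2 RNA.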 The following applies: MEX-5/FITC-TCR2 RNA binding, at 10 µM, stronger effect = lower value.
For the compound `CCCOc1ccc(C(=O)NCC2(N(C)C)CCCCC2)cc1OC`, the activity score (negative = inhibition of binding) is inactive: 0.0546%.

On to `CN1CCC(Nc2cccc(F)c2)CC1`, for which the activity score (negative = inhibition of binding) is inactive: 2.2%.

Take `COc1cc(OC)c(C(=O)NCC2(N(C)C)CCCCC2)cc1OC`: the activity score (negative = inhibition of binding) is inactive: -1.08%.

`CC(C)c1ccc(NC2CCN(C(=O)OC(C)(C)C)CC2)cc1`: the activity score (negative = inhibition of binding) was inactive: -2.81%.

With `CN(C)c1cccc(C(=O)NCC2(N3CCCCC3)CCCCC2)c1`, the activity score (negative = inhibition of binding) was inactive: 3.36%.

For the compound `COc1ccc(CN(CCCl)CCCl)cc1Cl`, the activity score (negative = inhibition of binding) is inactive: 1.39%.

`O=C(NCC1(N2CCOCC2)CCCCC1)c1cc(=O)[nH]c2ccccc12`: the activity score (negative = inhibition of binding) is inactive: -3.38%.

In the case of `COc1cc(C(=O)NCC2(N3CCCCC3)CCCCC2)ccc1OC(F)F`, the activity score (negative = inhibition of binding) is inactive: 1.29%.

For `COc1ccc(NC2CCN(C(=O)OC(C)(C)C)CC2)cc1`, the activity score (negative = inhibition of binding) is inactive: -0.633%.

`CN1CCN(CCOC(=O)C(O)(c2ccccc2)c2ccccc2)CC1`: the activity score (negative = inhibition of binding) was inactive: 1.33%.

For `O=C(NCC1(N2CCCCC2)CCCCC1)c1cccc(C(F)(F)F)c1`, the activity score (negative = inhibition of binding) is inactive: 2.01%.

As to `N#CC1(Nc2ccccc2)CCN(CCc2ccccc2)CC1`, the activity score (negative = inhibition of binding) was inactive: 1.39%.

For the compound `CCN1CCC(Nc2ccc(Cl)cc2)CC1`, the activity score (negative = inhibition of binding) is inactive: 2.49%.

`O=C(NCC1(N2CCCCC2)CCCCC1)c1cccc([N+](=O)[O-])c1`: the activity score (negative = inhibition of binding) is inactive: 1.57%.

Regarding `O=C(NCC1(N2CCCCC2)CCCCC1)c1ccc(OC(F)F)cc1`, the activity score (negative = inhibition of binding) was inactive: 1.43%.

With `Cc1ccc(OCC(C)C)c(CN(CCCl)CCCl)c1`, the activity score (negative = inhibition of binding) was inactive: 1.22%.

Turning to `CCOC(=O)N1CCC(Nc2cccc(C)c2)CC1`, the activity score (negative = inhibition of binding) is inactive: 1.91%.

For `COc1cc(C(=O)NCC2(N(C)C)CCCCC2)ccc1OC(F)F`, the activity score (negative = inhibition of binding) was inactive: 2.53%.

With `CCOC(=O)N1CCC(Nc2ccc(F)cc2)CC1`, the activity score (negative = inhibition of binding) is inactive: 1.32%.

With `COc1ccc(NC2CCN(CCc3ccccc3)CC2)c(OC)c1`, the activity score (negative = inhibition of binding) is inactive: -1.55%.

Regarding `O=C(NCC1(N2CCCCC2)CCCCC1)c1ccc(F)cc1`, the activity score (negative = inhibition of binding) is inactive: -2.3%.

Regarding `CCOc1ccc(C)cc1CN(CCCl)CCCl`, the activity score (negative = inhibition of binding) was inactive: -1.28%.

With `N#CC1(Nc2ccccc2)CCN(Cc2ccccc2)CC1`, the activity score (negative = inhibition of binding) is inactive: 4.42%.

Consider `O=C(OC1CN2CCC1CC2)C1c2ccccc2Oc2ccccc21` (centres undefined), for which the activity score (negative = inhibition of binding) was inactive: 0.117%.

For `CCOC(=O)N1CCC(Nc2ccc(OC)cc2)CC1`, the activity score (negative = inhibition of binding) was inactive: -0.314%.

With `Cc1cc(C)cc(N(C(=O)c2ccccc2)C2CCN(C(=O)OC(C)(C)C)CC2)c1`, the activity score (negative = inhibition of binding) was inactive: 0.0547%.

With `O=C(NCC1(N2CCCCC2)CCCCC1)c1ccc(Cl)nc1`, the activity score (negative = inhibition of binding) is inactive: -2.09%.

Consider `O=C(NCC1(N2CCOCC2)CCCCC1)c1cc2ccccc2o1`, for which the activity score (negative = inhibition of binding) is inactive: -0.133%.

For the compound `CSc1ccccc1C(=O)NCC1(N2CCCCC2)CCCCC1`, the activity score (negative = inhibition of binding) is inactive: 4.09%.

For the compound `CC(C)(C)OC(=O)N1CCC(N(C(=O)c2ccccc2)c2ccc(F)cc2)CC1`, the activity score (negative = inhibition of binding) is inactive: 1.34%.

With `COc1ccc(C(=O)NCC2(N3CCCCC3)CCCCC2)c(OC)c1OC`, the activity score (negative = inhibition of binding) is inactive: -3.53%.

Regarding `COc1ccc(C(=O)NCC2(N3CCCCC3)CCCCC2)cc1`, the activity score (negative = inhibition of binding) is inactive: -0.14%.

In the case of `O=C(NCC1(N2CCCCC2)CCCCC1)c1cccs1`, the activity score (negative = inhibition of binding) is inactive: 1.04%.

As to `O=C(NCC1(N2CCCCC2)CCCCC1)c1ccc(=O)[nH]c1`, the activity score (negative = inhibition of binding) was inactive: 2.08%.

On to `CN1CCC(Nc2ccc(Cl)cc2)CC1`, for which the activity score (negative = inhibition of binding) was inactive: -2.74%.

With `CCCOc1ccc(C)cc1CN(CCCl)CCCl`, the activity score (negative = inhibition of binding) is inactive: 3.94%.

With `COc1cccc(C(=O)N(c2cc(C)cc(C)c2)C2CCN(C(=O)OC(C)(C)C)CC2)c1`, the activity score (negative = inhibition of binding) is inactive: -0.196%.

In the case of `COc1cc(OC)cc(C(=O)NCC2(N3CCOCC3)CCCCC2)c1`, the activity score (negative = inhibition of binding) is inactive: 0.757%.

For `CCC(CO)(C(=O)OC1CN2CCC1CC2)c1ccccc1` (centres undefined), the activity score (negative = inhibition of binding) was inactive: -0.334%.

With `O=C(O)C1(Nc2ccccc2)CCN(Cc2ccccc2)CC1`, the activity score (negative = inhibition of binding) was inactive: -1.72%.

Take `CC(C)(C)OC(=O)N1CCC(Nc2ccccc2)CC1`: the activity score (negative = inhibition of binding) is inactive: -0.922%.

With `CCCOc1ccc(C(=O)NCC2(N(C)C)CCCCC2)cc1`, the activity score (negative = inhibition of binding) is inactive: 0.368%.

For the compound `CN1CCC(Nc2ccc(F)c(Cl)c2)CC1`, the activity score (negative = inhibition of binding) was inactive: -0.19%.

For the compound `CCOc1ncccc1C(=O)NCC1(N2CCOCC2)CCCCC1`, the activity score (negative = inhibition of binding) was inactive: 3.22%.

Take `CN(C)c1ccc(C(=O)NCC2(N3CCCCC3)CCCCC2)cc1`: the activity score (negative = inhibition of binding) was inactive: 2.42%.

As to `CCN1CCC(Nc2cccc(F)c2)CC1`, the activity score (negative = inhibition of binding) was inactive: -0.58%.

As for `Fc1ccccc1NC1CCN(Cc2ccccc2)CC1`, the activity score (negative = inhibition of binding) was inactive: -1.04%.

`Cc1ccc(C(=O)NCC2(N3CCCCC3)CCCCC2)o1`: the activity score (negative = inhibition of binding) was inactive: -0.0534%.

Consider `COc1cc(OC)cc(C(=O)NCC2(N3CCCCC3)CCCCC2)c1`, for which the activity score (negative = inhibition of binding) was inactive: 0.935%.

On to `CN(C)C1(CNC(=O)c2cccc(C#N)c2)CCCCC1`, for which the activity score (negative = inhibition of binding) was inactive: -0.026%.

As to `CCCN1CCC(Nc2cc(OC)cc(OC)c2)CC1`, the activity score (negative = inhibition of binding) is inactive: 8.22%.

For the compound `c1ccc(CN2CCC(Nc3ccccc3)CC2)cc1`, the activity score (negative = inhibition of binding) is inactive: -0.458%.

On to `N#Cc1ccc(C(=O)NCC2(N3CCCCC3)CCCCC2)cc1`, for which the activity score (negative = inhibition of binding) was inactive: 1.13%.

In the case of `CC(C)(C)OC(=O)N1CCC(N(C(=O)c2ccccc2)c2ccc(Cl)cc2)CC1`, the activity score (negative = inhibition of binding) is inactive: -3.73%.

`CCc1cc(C(=O)NCC2(N3CCCCC3)CCCCC2)sc1C`: the activity score (negative = inhibition of binding) was inactive: 2.3%.

`O=C(OC1CN2CCC1CC2)C1c2ccccc2C=Cc2ccccc21` (centres undefined): the activity score (negative = inhibition of binding) was inactive: 3.93%.

For `CCOC(=O)N1CCC(Nc2ccc(C)cc2)CC1`, the activity score (negative = inhibition of binding) is inactive: 0.438%.

Consider `N/C(=N\O)c1c(N)no[n+]1[O-]`, for which the activity score (negative = inhibition of binding) was inactive: 0.443%.

In the case of `COc1ccc(C(=O)NCC2(N3CCOCC3)CCCCC2)cc1OC`, the activity score (negative = inhibition of binding) was inactive: -0.398%.
